pIC50: −log10 of the molar value. Values joined by “and” are separate entries in the source; they are usually repeats but may differ in a detail not shown here. Equal entries are not always repeated. Where two headings read alike, the source gives them in different places. Marks after values point to notes of the source that are not given here.
Experiments:
hERG [1] = target: T1, hERG (Homo sapiens, UniProt Q12809)
hERG [2] = target: T1, hERG; settings: read-out: IC50 of IKr channel inhibition (Helson et al., 2012); previously reported; cited from earlier work
IKr channel (hERG) = IKr channel (hERG) (Homo sapiens, UniProt Q12809); settings: 100 nM, tested twice; 0.1 µM
hERG [3] = target: T1, hERG; settings: cited from earlier work

By UniProt entry, the sequences of proteins in these tests, tags left out. Where a name states a change or a piece, a line headed by the entry shows the natural chain unless it says otherwise.
UniProt Q12809: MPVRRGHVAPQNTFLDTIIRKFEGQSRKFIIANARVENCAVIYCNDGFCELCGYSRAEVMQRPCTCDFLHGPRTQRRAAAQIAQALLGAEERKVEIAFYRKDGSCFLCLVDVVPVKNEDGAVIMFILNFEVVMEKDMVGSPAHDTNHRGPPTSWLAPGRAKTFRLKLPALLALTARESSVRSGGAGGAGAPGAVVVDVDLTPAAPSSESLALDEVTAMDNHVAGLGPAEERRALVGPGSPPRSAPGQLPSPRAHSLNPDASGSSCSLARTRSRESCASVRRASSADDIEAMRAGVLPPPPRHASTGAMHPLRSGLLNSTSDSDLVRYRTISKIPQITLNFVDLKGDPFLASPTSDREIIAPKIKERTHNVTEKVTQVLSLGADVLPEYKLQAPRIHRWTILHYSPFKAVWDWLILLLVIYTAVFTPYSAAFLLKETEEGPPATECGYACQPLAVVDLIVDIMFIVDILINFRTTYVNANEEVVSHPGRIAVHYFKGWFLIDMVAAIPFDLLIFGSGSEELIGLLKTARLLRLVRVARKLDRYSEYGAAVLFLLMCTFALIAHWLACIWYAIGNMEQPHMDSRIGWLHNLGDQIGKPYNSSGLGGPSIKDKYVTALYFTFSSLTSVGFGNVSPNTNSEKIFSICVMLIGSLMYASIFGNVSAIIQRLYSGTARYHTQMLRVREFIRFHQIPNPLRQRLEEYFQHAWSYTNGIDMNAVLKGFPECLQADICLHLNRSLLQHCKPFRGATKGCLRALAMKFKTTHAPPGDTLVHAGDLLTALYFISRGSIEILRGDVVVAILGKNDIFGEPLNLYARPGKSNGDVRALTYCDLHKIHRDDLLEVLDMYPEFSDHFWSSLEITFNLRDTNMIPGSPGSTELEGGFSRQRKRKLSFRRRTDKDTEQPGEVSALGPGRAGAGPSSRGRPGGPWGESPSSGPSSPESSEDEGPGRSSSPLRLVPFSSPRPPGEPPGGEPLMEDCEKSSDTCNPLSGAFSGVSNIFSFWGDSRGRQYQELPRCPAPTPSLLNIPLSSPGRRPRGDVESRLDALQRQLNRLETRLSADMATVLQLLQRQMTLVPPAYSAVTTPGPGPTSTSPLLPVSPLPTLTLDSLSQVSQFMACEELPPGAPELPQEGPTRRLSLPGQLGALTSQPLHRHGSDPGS

With “N-[4-[[1-[2-(6-methyl-2-pyridinyl)ethyl]-4-piperidinyl]carbon-yl]phenyl]methane sulfonamide dihydrochloride anhydrous [E-4031]” the “Corrected Normalized Current Density” value (hERG [1]) was 0.094*, the pIC50 (hERG [1]) was 7.30 and the “Normalized Current Density” value (hERG [1]) was 0.124. For the same substance, the pIC50 (hERG [2]) was 7.25, the “inhibition of current density” value (IKr channel (hERG)) was 67% and 79% and the “hERG blocker potency (in words)” value (hERG [3]) was “extremely high potency compound”.

Source: US12004868B2, “Liposomal mitigation of drug-induced inhibition of the cardiac IKr channel” (Signpath Pharma, Inc., priority 2011, dated 2024)
